System: primary AML cells
Assay: Sample drug screening: viability of primary AML cells (PrestoBlue) after 24 h drug exposure in nine culture conditions
Conditions: Homo sapiens, read-out: IC50 daunorubicin

For `COc1cccc2c1C(=O)c1c(O)c3c(c(O)c1C2=O)C[C@@](O)(C(C)=O)C[C@@H]3O[C@H]1C[C@H](N)[C@H](O)[C@H](C)O1` [daunorubicin], the IC50 was 2050 nM.
